{
  "source": "patent US9132169B2",
  "about": "“Methods and compositions for modulating adipocyte function” (Joslin Diabetes Center, Inc., priority 2003, dated 2015)",
  "molecules": {"B1": {"name": "BMP-2: bone morphogenetic protein 2, added at 33 nM to culture medium (protein, listed as Homo sapiens)", "chain": "QAKHKQRKRLKSSCKRHPLYVDFSDVGWNDWIVAPPGYHAFYCHGECPFPLADHLNSTNHAIVQTLVNSVNSKIPKACCVPTELSAISMLYLDENEKVVLKNYQDMVVEGCGCR"}},
  "system": "WT brown preadipocytes",
  "experiment": "Brown adipocyte differentiation, Oil Red O staining",
  "format": "cell-based, mouse",
  "settings": "33 nM BMP, 10 days, absence of induction cocktail",
  "experimental": "Preadipocytes were grown to confluence (day 0) in differentiation medium (Dulbecco's modified […] medium containing 10% Fetal Bovine Serum supplemented with 20 nM insulin and 1 nM T3). Adipocyte differentiation was induced by treating confluent cells for 48 hours in differentiation medium further supplemented with 0.5 mM isobutylmethylxanthine (IBMX), 0.5 mM dexamethazone, and 0.125 mM indomethacin. After this induction period (day 2), cells were placed back to differentiation medium, which was then changed every second day.\nDishes were washed twice with phosphate-buffered saline and fixed with 10% buffered formalin for at least 1 hour at room temperature. Cells were then stained for 2 hours at room temperature with a filtered oil red 0 solution (0.5% oil red 0 in isopropyl alcohol), washed twice with distilled water, and visualized.\nBrown fat precursor cells were isolated from intrascapular brown fat of newborn mice and immortalized by SV40 T antigen. […] Once fully differentiated, multi-locular fat droplets could be detected both microscopically and by Oil Red-O staining. Expression of UCP-1 was detected at basal state and upon β-adrenergic stimulation, confirming the features of brown adipocytes (methods described in Klein et al., J. Biol. Chem. 274:34795-34802 (1999)). […]",
  "data": [
    {"molecule": "B1", "values": [
      {"measurement": "lipid accumulation as monitored by Oil Red O staining (brown adipocyte differentiation)", "value": "substantial increase in lipid accumulation"}
    ]}
  ]
}
